Protein sequences, listed by entry. Tags and fused reporters are not part of them.
UniProt P27487, whole entry: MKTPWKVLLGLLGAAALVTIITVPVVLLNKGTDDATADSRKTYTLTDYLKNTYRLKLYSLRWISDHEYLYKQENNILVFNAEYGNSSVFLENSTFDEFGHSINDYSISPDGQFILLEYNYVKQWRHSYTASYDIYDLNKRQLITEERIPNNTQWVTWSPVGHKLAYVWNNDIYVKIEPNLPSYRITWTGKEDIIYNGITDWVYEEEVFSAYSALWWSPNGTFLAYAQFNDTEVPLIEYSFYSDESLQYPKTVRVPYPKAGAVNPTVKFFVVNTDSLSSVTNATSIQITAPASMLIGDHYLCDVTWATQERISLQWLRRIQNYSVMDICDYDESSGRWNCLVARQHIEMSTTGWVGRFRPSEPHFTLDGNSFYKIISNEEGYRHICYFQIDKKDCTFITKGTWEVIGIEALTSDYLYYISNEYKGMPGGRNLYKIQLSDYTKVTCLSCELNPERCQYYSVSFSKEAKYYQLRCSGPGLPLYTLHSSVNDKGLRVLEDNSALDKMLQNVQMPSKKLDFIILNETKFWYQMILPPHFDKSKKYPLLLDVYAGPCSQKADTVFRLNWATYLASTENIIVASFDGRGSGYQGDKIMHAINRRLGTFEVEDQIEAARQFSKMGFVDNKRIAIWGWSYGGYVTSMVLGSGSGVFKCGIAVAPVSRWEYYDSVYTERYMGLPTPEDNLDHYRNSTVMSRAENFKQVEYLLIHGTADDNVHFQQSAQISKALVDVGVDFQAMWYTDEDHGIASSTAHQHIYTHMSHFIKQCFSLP

According to ChEMBL document CHEMBL1146037, “Design and discovery of a novel dipeptidyl-peptidase IV (CD26)-based prodrug approach” (J Med Chem, 2006):

Target: Dipeptidyl peptidase 4 (Homo sapiens, UniProt P27487)
Experiment: Inhibition of CD26-catalyzed prodrug Val-Pro-NAP-TSAO-T conversion to parent drug NAP-TSAO-T
Format: ADME

CC[C@H](C)[C@H](N)C(=O)N1CCC[C@H]1C(=O)N[C@H](C(=O)O)[C@@H](C)CC [DIPROTIN A]
Inhibition: 70%
